# Patent US20080206201A1
# Tested on: tumor cells that have a degree of resistance to the virus treatment
# Assay: Cell killing by virus and prodrug, Giemsa staining
# Conditions: virus MOI of 0.001 on day 2; doxorubicin or HMR1826 at 1 μM on day 3; Giemsa on day 8
row,Compound,cell killing / toxicity to the cells
1,doxorubicin-glucuronide,not toxic to the cells
2,COc1cccc2c1C(=O)c1c(O)c3c(c(O)c1C2=O)C[C@@](O)(C(=O)CO)C[C@@H]3O[C@H]1C[C@H](N)[C@H](O)[C@H](C)O1,kills the cells
